Measurements: patent publication US7026327B2, “Pyrimidine derivatives useful as selective COX-2 inhibitors” (Glaxo Group Limited, priority 2001, dated 2006)

Amino acid sequences for entries named in this document (tags omitted). Residues count along the entry.
UniProt P23219, 24-599: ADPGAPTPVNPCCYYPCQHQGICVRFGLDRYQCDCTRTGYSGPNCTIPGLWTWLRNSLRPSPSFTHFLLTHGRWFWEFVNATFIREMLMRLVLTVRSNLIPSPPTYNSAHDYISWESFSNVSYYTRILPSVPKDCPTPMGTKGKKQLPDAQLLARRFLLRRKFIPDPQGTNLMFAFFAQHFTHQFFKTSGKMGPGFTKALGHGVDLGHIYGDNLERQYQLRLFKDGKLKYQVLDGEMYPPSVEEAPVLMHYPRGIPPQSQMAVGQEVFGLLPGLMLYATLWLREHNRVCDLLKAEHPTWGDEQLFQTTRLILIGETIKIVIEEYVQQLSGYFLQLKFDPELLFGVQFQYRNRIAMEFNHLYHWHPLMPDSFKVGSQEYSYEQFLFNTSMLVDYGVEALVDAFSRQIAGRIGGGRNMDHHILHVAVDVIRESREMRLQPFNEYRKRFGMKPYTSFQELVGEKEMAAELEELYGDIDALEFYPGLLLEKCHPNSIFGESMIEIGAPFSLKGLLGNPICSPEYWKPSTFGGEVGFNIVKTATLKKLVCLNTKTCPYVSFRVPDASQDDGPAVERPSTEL

Molecular target: COX-1 (Homo sapiens, UniProt P23219)
Test: Microsomal assay, COX-1
Type: biochemical

SMILES | IC50 [µM]
CS(=O)(=O)c1ccc(-c2cc(C(F)(F)F)nc(OCC3CCCC3)n2)cc1 [Example 9] | 69
CCCCOc1nc(-c2ccc(S(C)(=O)=O)cc2)cc(C(F)(F)F)n1 [Example 10, 2-Butoxy-4-[4-(methylsulfonyl)phenyl]-6-(trifluoromethyl)pyrimidine] | > 30
